17 molecules from patent US9340577B2, “HLA binding motifs and peptides and their uses” (priority 1992, dated 2016) can be followed below.

Holding throughout (assay): biochemical
For one assay, the target named is A31 (A*3101) (Homo sapiens, UniProt P04439, A270S/D185E/E176V/E277Q/F33T/G231S/G80R/H175R/I121M/I218V/I322F/K168Q/L300P/L318F/M331R/P217A/Q94H/R138Q/T323A/T345S/T97I/V358M). In kind it is binding.
The target of a further assay is DRB1*1302 (Homo sapiens, UniProt P01903+P01911, A100E/A169T/K41T/L162R/M171V/P40S/Q125H/Q178H/Q39Y/Q99D/R42S/S66N/T262R/V115G/W38E/Y61H).
The target in a further assay is HLA-A11 (A*1101) (Homo sapiens, UniProt P04439, A114D/D185E/E176A/F33Y/L180Q/S129P/T187R). In kind it is binding.
The target in the next assay is A*3301 (Homo sapiens, UniProt P04439, A270S/D185E/E176V/E277Q/E87N/F33T/G231S/H175R/I121M/I218V/I322F/K168Q/K210R/L300P/L318F/M331R/P217A/Q86R/Q94H/R138Q/T323A/T345S/T97I/V358M/Y195H). It counts as binding.
In a further assay the target is A*6801 (Homo sapiens, UniProt P04439, A269V/D185E/E176V/E277Q/E87N/F33Y/G231S/I121M/I166T/I218V/L180W/L300P/L318F/N151K/P208A/P217A/Q86R/R169H/T345S). In kind it is binding.
The target of a further assay is HLA-A3.2 (A*0301) (Homo sapiens, UniProt P04439). It counts as binding.
A further assay concerns the target DRB1*0802 (Homo sapiens, UniProt P01903+P01911, A100R/A103L/A169T/F76Y/H45Y/I96F/K41T/L162R/M171V/P40S/Q125H/Q178H/Q39Y/Q99D/R218S/R42G/S66Y/V115G/W38E).

Each structure is given as a SMILES string. Read-outs that look alike come from different tables or passages of the source. A value given as a limit tells only on which side of the number the result lay.

At A31 (A*3101), `CC[C@H](C)[C@H](NC(=O)[C@H](CC(C)C)NC(=O)[C@@H](N)C(C)C)C(=O)N[C@@H](CC(C)C)C(=O)N[C@@H](C)C(=O)N[C@@H](CC(C)C)C(=O)N[C@@H](CC(C)C)C(=O)N[C@@H](CCCNC(=N)N)C(=O)N[C@@H](Cc1ccc(O)cc1)C(=O)N[C@@H](CCCCN)C(=O)O` [Peptide 88.0144] came in with an IC50 of 285 nM.
Still for that read-out and setting: the result for `CC[C@H](C)[C@H](NC(=O)[C@H](CC(C)C)NC(=O)[C@H](C)NC(=O)[C@@H](NC(=O)[C@H](CC(C)C)NC(=O)[C@H](C)NC(=O)[C@@H](N)CC(C)C)[C@@H](C)O)C(=O)N[C@@H](CCCCN)C(=O)N1CCC[C@H]1C(=O)N[C@@H](CCCCN)C(=O)O` [Peptide 9017.0227] reads 1170 nM.
`CSCC[C@H](NC(=O)[C@H](CCC(N)=O)NC(=O)[C@H](CCC(N)=O)NC(=O)[C@@H](NC(=O)[C@H](CCC(=O)O)NC(=O)[C@@H](NC(=O)[C@H](CCC(=O)O)NC(=O)[C@@H](NC(=O)[C@@H](N)CC(N)=O)[C@@H](C)O)C(C)C)[C@@H](C)O)C(=O)N[C@H](C(=O)N[C@@H](CCC(N)=O)C(=O)N[C@@H](CCC(N)=O)C(=O)N[C@H](C(=O)N[C@@H](CCC(=O)O)C(=O)N[C@@H](CO)C(=O)O)C(C)C)C(C)C` [Peptide 89.0059] registered an IC50 against DRB1*1302 of 8330 nM.
Same read-out and setting: the result for `CC[C@H](C)[C@H](NC(=O)[C@H](Cc1c[nH]cn1)NC(=O)[C@H](C)NC(=O)[C@H](Cc1ccc(O)cc1)NC(=O)[C@H](CC(C)C)NC(=O)[C@@H](NC(=O)[C@H](Cc1ccccc1)NC(=O)[C@@H]1CCCN1C(=O)[C@H](CCC(N)=O)NC(=O)[C@@H](NC(=O)[C@H](CC(C)C)NC(=O)[C@@H](NC(=O)[C@H](CCCCN)NC(=O)[C@@H](N)Cc1ccccc1)[C@@H](C)O)[C@@H](C)CC)[C@@H](C)CC)C(=O)N[C@@H](CCC(N)=O)C(=O)O` [Peptide 89.0025] reads 1150 nM.
In the case of `CC[C@H](C)[C@H](NC(=O)[C@H](CCCCN)NC(=O)[C@H](CCCNC(=N)N)NC(=O)[C@H](CCC(N)=O)NC(=O)[C@H](CCCNC(=N)N)NC(=O)[C@H](CC(C)C)NC(=O)[C@@H](NC(=O)[C@@H](N)CCCCN)[C@@H](C)CC)C(=O)N[C@@H](CC(=O)O)C(=O)N[C@@H](CCCNC(=N)N)C(=O)O` [Peptide 9017.0246], the IC50 is 5080 nM at HLA-A11 (A*1101), 3740 nM against A*3301, 166 nM against A31 (A*3101) and more than 20000 nM at A*6801.
Regarding `CC[C@H](C)[C@H](N)C(=O)N[C@H](C(=O)N[C@@H](Cc1ccc(O)cc1)C(=O)N[C@@H](CCCNC(=N)N)C(=O)N[C@@H](CC(=O)O)C(=O)NCC(=O)N[C@@H](CC(N)=O)C(=O)N1CCC[C@H]1C(=O)N[C@@H](Cc1ccc(O)cc1)C(=O)O)C(C)C` [Peptide 78.0272], the IC50 against A*3301 was more than 20000 nM; on A31 (A*3101) it was more than 20000 nM; against A*6801 it was 3760 nM; at HLA-A3.2 (A*0301), 76 nM.
`CC[C@H](C)[C@H](N)C(=O)N[C@@H](CC(C)C)C(=O)N[C@@H](CCCNC(=N)N)C(=O)N[C@@H](CCC(N)=O)C(=O)N[C@@H](CCCNC(=N)N)C(=O)N[C@@H](CCCCN)C(=O)N[C@H](C(=O)N[C@@H](CC(=O)O)C(=O)N[C@@H](CCCNC(=N)N)C(=O)O)[C@@H](C)CC` [Peptide 9017.0121]: the IC50 at HLA-A11 (A*1101) was more than 20000 nM; on A*3301, 26 nM; against A31 (A*3101), 7.3 nM; at A*6801, more than 20000 nM; at HLA-A3.2 (A*0301), 7830 nM.
As to `CC(C)C[C@H](NC(=O)[C@H](Cc1c[nH]cn1)NC(=O)[C@H](CO)NC(=O)[C@H](CO)NC(=O)[C@H](Cc1c[nH]cn1)NC(=O)[C@@H](NC(=O)[C@@H](N)CCCNC(=N)N)[C@@H](C)O)C(=O)N[C@@H](CCCCN)C(=O)N[C@@H](CO)C(=O)N[C@@H](CCCCN)C(=O)N[C@@H](CCCCN)C(=O)O` [Peptide 1556.76], the IC50 against A31 (A*3101) is 195 nM.
Consider `CC[C@H](C)[C@H](NC(=O)[C@H](C)NC(=O)[C@H](CCCCN)NC(=O)[C@@H](N)Cc1c[nH]cn1)C(=O)N[C@@H](CCC(=O)O)C(=O)N[C@@H](CC(C)C)C(=O)N[C@@H](CCC(N)=O)C(=O)N[C@@H](CCSC)C(=O)N[C@@H](C)C(=O)N[C@@H](CC(C)C)C(=O)N[C@@H](CCC(N)=O)C(=O)NCC(=O)N[C@@H](CC(C)C)C(=O)N[C@@H](C)C(=O)N[C@@H](CCC(N)=O)C(=O)O` [Peptide 89.0160], for which the IC50 on DRB1*1302 amounted to 3960 nM.
Same read-out and setting: the result for `CC[C@H](C)[C@H](NC(=O)[C@H](C)NC(=O)[C@H](CCC(N)=O)NC(=O)[C@H](CC(C)C)NC(=O)[C@H](C)NC(=O)[C@H](CCCCN)NC(=O)[C@H](C)N)C(=O)N[C@@H](CCC(=O)O)C(=O)N[C@@H](CC(C)C)C(=O)N[C@@H](CCC(N)=O)C(=O)N[C@@H](CCSC)C(=O)N[C@@H](CCSC)C(=O)N[C@@H](CC(C)C)C(=O)N[C@@H](CCC(=O)O)C(=O)N[C@H](C(=O)O)[C@@H](C)O` [Peptide 89.0171] reads 506 nM.
Take `CC(C)C[C@H](NC(=O)[C@H](Cc1ccccc1)NC(=O)[C@H](Cc1c[nH]cn1)NC(=O)[C@H](CO)NC(=O)[C@H](CC(C)C)NC(=O)[C@H](CC(=O)O)NC(=O)[C@H](Cc1ccccc1)NC(=O)[C@H](C)NC(=O)[C@H](C)N)C(=O)N[C@@H](CCCCN)C(=O)O` [Peptide 9017.0190]: the IC50 at HLA-A11 (A*1101) worked out at 2 nM; at A*3301, 2550 nM; on A31 (A*3101), 96 nM; on A*6801, 2.5 nM; against HLA-A3.2 (A*0301), 8.7 nM.
`CC(C)C[C@H](NC(=O)[C@H](C)NC(=O)[C@H](CCCCN)NC(=O)[C@H](C)NC(=O)[C@H](CCCCN)NC(=O)[C@H](CO)NC(=O)[C@@H](NC(=O)[C@H](CO)NC(=O)[C@H](CC(C)C)NC(=O)[C@H](C)NC(=O)[C@@H]1CCCN1C(=O)[C@@H](NC(=O)[C@@H](NC(=O)[C@H](CCC(N)=O)NC(=O)[C@@H](N)Cc1c[nH]cn1)C(C)C)C(C)C)C(C)C)C(=O)O` [Peptide 89.0169] gave an IC50 against DRB1*1302 of 881 nM.
Consider `CC[C@H](C)[C@H](NC(=O)[C@H](CCCCN)NC(=O)[C@@H](NC(=O)[C@@H](NC(=O)[C@@H](N)C(C)C)[C@@H](C)O)[C@@H](C)CC)C(=O)NCC(=O)NCC(=O)N[C@@H](CCC(N)=O)C(=O)N[C@@H](CC(C)C)C(=O)N[C@@H](CCCNC(=N)N)C(=O)O` [Peptide 1516.01], for which the IC50 against HLA-A11 (A*1101) was 64 nM; on A*3301, 6020 nM; against A31 (A*3101), 58 nM; at A*6801, 31 nM.
`CC[C@H](C)[C@H](NC(=O)[C@H](CC(C)C)NC(=O)[C@@H](N)Cc1ccc(O)cc1)C(=O)N[C@@H](Cc1c[nH]cn1)C(=O)N[C@H](C(=O)N1CCC[C@H]1C(=O)N[C@@H](CS)C(=O)N[C@@H](CS)C(=O)N[C@@H](CCC(=O)O)C(=O)N[C@@H](CS)C(=O)N[C@@H](CCCCN)C(=O)O)C(C)C` [Peptide 86.0032]: the IC50 was 8070 nM at A*3301 (read-out: A*3301); 33000 nM at A31 (A*3101) (read-out: A*3101); 177 nM on A*6801 (read-out: A*6801); 1750 nM on HLA-A3.2 (A*0301) (read-out: A*0301, Table 14, binding to A*0301).
In turn, `C[C@H](NC(=O)[C@H](CC(=O)O)NC(=O)[C@H](CCC(=O)O)NC(=O)[C@H](CCCCN)NC(=O)[C@H](Cc1ccccc1)NC(=O)[C@H](Cc1ccc(O)cc1)NC(=O)[C@H](CCCCN)NC(=O)[C@H](Cc1ccccc1)NC(=O)[C@@H](N)Cc1ccc(O)cc1)C(=O)N[C@@H](CCCCN)C(=O)N[C@@H](CCCCN)C(=O)N[C@@H](Cc1ccc(O)cc1)C(=O)N[C@@H](CO)C(=O)N[C@@H](CCCCN)C(=O)N[C@H](C(=O)O)[C@@H](C)O` [Peptide 90.0253] had an IC50 at DRB1*0802 of 569 nM.
Still for that read-out and setting: the result for `CC[C@H](C)[C@H](NC(=O)[C@H](CC(N)=O)NC(=O)[C@@H](NC(=O)[C@@H](NC(=O)[C@H](CC(C)C)NC(=O)[C@H](CC(C)C)NC(=O)[C@@H](NC(=O)[C@@H]1CCCN1C(=O)[C@@H]1CCCN1C(=O)[C@H](CS)NC(=O)[C@H](CCCCN)NC(=O)[C@H](CC(C)C)NC(=O)[C@H](CCC(N)=O)NC(=O)[C@@H](NC(=O)[C@@H](N)CC(C)C)[C@@H](C)CC)[C@@H](C)CC)[C@@H](C)O)[C@@H](C)O)C(=O)O` [Peptide 89.0038] reads 1170 nM.
With `CC[C@H](C)[C@H](NC(=O)[C@@H](NC(=O)[C@H](C)NC(=O)[C@H](CCC(=O)O)NC(=O)[C@@H](NC(=O)[C@H](CCC(=O)O)NC(=O)[C@H](Cc1ccccc1)NC(=O)[C@H](Cc1c[nH]c2ccccc12)NC(=O)CNC(=O)[C@@H](N)[C@@H](C)O)C(C)C)C(C)C)C(=O)N[C@@H](CCC(=O)O)C(=O)N[C@@H](CCCNC(=N)N)C(=O)N[C@@H](CCCNC(=N)N)C(=O)N[C@H](C(=O)NCC(=O)O)[C@@H](C)O` [Peptide 90.0075], the IC50 against DRB1*0802 came out at 9320 nM.
